High-throughput results as filed in PubChem.
esBAF inh: blocks esBAF chromatin remodeling in mouse ES cells; actives 2% (n = 350,000); reporter increase, % at 12.5 µM; AID 602393; Bmi1-luciferase knock-in reporter, 24 h; 100% = twice the neutral-well signal; in the data active = activation above about 40%; inconclusive = no clear call, values can overlap the other calls;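 note: a rise in the Bmi1 reporter signal indicates esBAF inhibition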
E-sel inducer: E-selectin induction on HUVECs; P16581; HUVEC E-selectin immunofluorescence imaging; normalized: neutral wells 0, TNF-alpha wells 100; activation, % at 7.58 µM; actives 0.37% (n = 260,000);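 active = mean E-selectin-positive cell signal at least 10% of the positive control, reached in at least 60% of replicates, without over 20% cell loss; inconclusive = no rule given, readout overlaps actives, possibly toxicity-flagged; inactive = the rest, including those meeting only one limit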
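Assay system: HUVEC primary endothelial cells. Input: 3,000 HUVEC seeded per well. Doses: one compound dose added by pin transfer. Read-out basis: % PE-positive cells. Benchmarks: TNF-alpha high, DMSO low. Detection: immunofluorescence imaging. Buffer or medium: EGM-2, gelatin.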
PGC1a acetyl inh: modulators of PGC1a acetylation. actives 0.17% (n = 350,000). U2OS PGC1a acetylation, AlphaScreen anti-acetyl-lysine; with virally co-expressed GCN5 acetyltransferase. inhibition, % at 15.6 µM;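 active = every replicate shows inhibition of at least 40%; inconclusive = mean inhibition at least 40% but some replicate below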
PglD DTNB: blocks C. jejuni PglD acetyltransferase activity. purified PglD enzyme, DTNB colorimetric CoA detection. inhibition, % at 12.5 µM. actives 0.098% (n = 360,000); in the data active = inhibition above about 16%, passing the limit was not always enough; inconclusive = no clear call, values can overlap the other calls
Yeast UUG start: modulators of yeast start codon fidelity, primary screen, whole organism, S. cerevisiae, single point, plate reader; S. cerevisiae UUG-firefly luciferase reporter, luminescence/redox ratio; activity score, % at 18.7 µM; 0.13% of 350,000 active; AID 602363, 2012;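 active = replicate mean at a twofold rise or more, about +100% in these data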;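 also: firefly luciferase made from a UUG start codon reports start codon fidelity; reporter light over untreated wells divided by growth signal over untreated wells; some hits fall short of that in this replicate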
C2C12 statin: protects C2C12 myotubes from simvastatin toxicity | rescue of ATP level, % at 7.49 µM | ATP luminescence, 48 h; scaled: DMSO 0, geranylgeraniol control 100 | AID 602340 | actives 0.78% (n = 330,000);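 active = mean ATP rescue above about 67%, or every replicate alone reaching that limit, limit read from the data, passing the limit was not always enough; inconclusive = no clear call, values can overlap the other calls; inactive = mean under the limit and some replicate under it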;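 note: myotubes were challenged with 10 µM simvastatin during compound exposure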
Of the large screens only hits and unclear results are named; the others gave an inactive call. Only some compounds are listed: those with a hit (about 2.8% of all), similar ones and a draw of the others.

Cc1c(NC(=O)C(C)OC(=O)COc2cccc3c2OC(C)(C)C3)c(=O)n(-c2ccccc2)n1C (configuration not stated)	C2C12 statin 114.2 (no result: E-sel inducer)
Cc1c(NC(=O)COc2cccc3c2OC(C)(C)C3)c(=O)n(-c2ccccc2)n1C	none (no result: E-sel inducer, PGC1a acetyl inh)
C[C@H](CO)N1C[C@H](C)[C@@H](CN(C)C(=O)Nc2cccc3ccccc23)Oc2c(NC(=O)Nc3ccc4c(c3)OCO4)cccc2C1=O	none
O=C(OCc1cc(=O)n2ccsc2n1)c1ccccc1O	esBAF inh 74.0
O=c1cc(COc2ccc(Cl)c(Cl)c2)nc2sccn12	esBAF inh 45.4 (no result: E-sel inducer)
COc1ccccc1C(=O)OCc1cc(=O)n2ccsc2n1	none (no result: esBAF inh)
O=C(c1cnc2n(c1=O)CCS2)N1CCN(C(c2ccccc2)c2ccc(Cl)cc2)CC1 (configuration not stated)	C2C12 statin 75.7 (no result: E-sel inducer)
O=C(c1cnc2n(c1=O)CCS2)N1CCN(c2ccc([N+](=O)[O-])cc2)CC1	none (no result: E-sel inducer)
CC(C)CC#Cc1cnc2c(c1)C(=O)N([C@H](C)CO)C[C@@H](C)[C@H](CN(C)S(C)(=O)=O)O2	none (no result: PGC1a acetyl inh)
O=[N+]([O-])c1ccc(-c2cnc3ccccc3n2)cc1	esBAF inh 55.1 (no result: E-sel inducer)
C[C@@H]1CN([C@@H](C)CO)C(=O)c2cc(NC(=O)Nc3ccc(C(F)(F)F)cc3)ccc2O[C@H]1CN(C)C	none
COc1ccc(NC(=O)Nc2ccc3c(c2)C(=O)N([C@H](C)CO)C[C@@H](C)[C@@H](CN(C)C(=O)Nc2c(C)noc2C)O3)cc1	none
Cc1ccc(C(=O)NNC(=O)CSc2nnc(CNc3ccc(F)cc3)n2C)cc1	E-sel inducer 236.3 (no result: esBAF inh, PGC1a acetyl inh, PglD DTNB, Yeast UUG start, C2C12 statin)
COc1ccc2c3c([nH]c2c1)[C@@H](CO)N(C(=O)Cc1ccccc1)CC31CCN(C(=O)Nc2ccccc2F)CC1	none (no result: esBAF inh, PglD DTNB, Yeast UUG start, C2C12 statin)
COc1ccc(S(=O)(=O)NNC(=O)c2sccc2-n2cccc2)cc1	C2C12 statin 96.1
O=C(O)c1ccc(N/C(=N\S(=O)(=O)c2ccc(Cl)cc2)c2ccccc2)cc1	none
COc1ccc(NC(=S)NC(=NS(=O)(=O)c2ccc(Cl)cc2)c2ccccc2)cc1	esBAF inh 112.9 (no result: E-sel inducer)
COc1ccc(NC(=S)NC(=O)c2ccccc2Cl)cc1	esBAF inh 61.9 (no result: PGC1a acetyl inh)
O=S(=O)(/N=C(/NC(=S)Nc1ccccc1)c1ccccc1)c1ccc(Cl)cc1	esBAF inh 68.4 (no result: E-sel inducer, PGC1a acetyl inh)
COc1ccc(NC(=S)N/C(=N/S(=O)(=O)c2ccc(C)cc2)c2ccccc2)cc1	esBAF inh 58.8 (no result: E-sel inducer)
CCOC(=S)N/C(=N\S(=O)(=O)c1ccc(C)cc1)c1ccccc1	none (no result: E-sel inducer)
O=C(NC(=S)Nc1ccc(O)cc1)c1ccccc1Cl	esBAF inh inconclusive (no result: E-sel inducer)
COc1ccc(NC(=O)N(C)C[C@@H]2OCCCC[C@H](C)Oc3ccc(NS(=O)(=O)c4ccc(C)cc4)cc3C(=O)N([C@H](C)CO)C[C@@H]2C)cc1	none (no result: E-sel inducer, C2C12 statin)
Cc1ccc(S(=O)(=O)Nc2ccc3c(c2)C(=O)N([C@H](C)CO)C[C@H](C)[C@@H](CN(C)Cc2ccc(C(=O)O)cc2)OCCCC[C@H](C)O3)cc1	none (no result: E-sel inducer, C2C12 statin)
O=C(C[C@@H]1CC[C@@H]2[C@H](COC[C@@H](O)CN2Cc2cccc(C(F)(F)F)c2)O1)NCc1ccncc1	none
C[C@@H]1CN([C@@H](C)CO)C(=O)Cc2cc(N(C)C)ccc2O[C@@H]1CN(C)C(=O)Nc1ccc2c(c1)OCO2	none (no result: E-sel inducer)
COc1cc(C)ccc1OCc1cc(C(=O)N(C)CCCN2CCOCC2)no1	esBAF inh 73.6
COc1cc(C)ccc1OCc1cc(C(=O)NCCN2CCOCC2)no1	esBAF inh 63.2
O=C(COC(=O)Cn1nnc(-c2ccccc2)n1)Nc1ccccc1Br	C2C12 statin 99.7 (no result: esBAF inh)
Cc1ccc(-n2ccc(=O)c(-c3ccnc(SCc4cccc(Cl)c4)n3)n2)cc1	C2C12 statin 84.3 (no result: E-sel inducer)
CC1(C)CC(=O)C=C(NCc2ccco2)C1	PGC1a acetyl inh 40.3 (no result: esBAF inh, E-sel inducer, PglD DTNB, Yeast UUG start, C2C12 statin)
O=C(C[C@H]1CC[C@H]2[C@@H](COC[C@H](O)CN2S(=O)(=O)c2ccccc2)O1)NCCN1CCCCC1	none
COc1ccc2c3c(n(C)c2c1)[C@H](CO)N(Cc1cccc(Cl)c1)CC31CCN(C(C)=O)CC1	none (no result: esBAF inh, PglD DTNB, Yeast UUG start, C2C12 statin)
Cc1cccc(-n2ncc3c(NCc4cccs4)ncnc32)c1	esBAF inh 55.9 (no result: E-sel inducer)
Cc1cccc(-n2ncc3c(NCc4ccco4)ncnc32)c1	esBAF inh 81.6 (no result: E-sel inducer)
Cc1cccc(-n2ncc3c(NCc4ccccn4)ncnc32)c1	esBAF inh 53.4 (no result: E-sel inducer)
C[C@@H]1CN([C@H](C)CO)C(=O)c2cc(NS(=O)(=O)c3ccccc3)ccc2O[C@@H](C)CCCCO[C@H]1CN(C)Cc1ccc(C(F)(F)F)cc1	none (no result: C2C12 statin)
Cc1cc(C(=O)Cn2nc(C(=O)O)c3ccccc3c2=O)c(C)n1-c1ccc(F)cc1	esBAF inh 48.3 (no result: E-sel inducer, PGC1a acetyl inh, PglD DTNB, Yeast UUG start)
CC(c1nc2ccccc2[nH]1)N(C(=O)C1=NNC(=O)CC1)c1ccccc1 (configuration not stated)	none
Cc1cnc(C(=O)N(c2ccccc2)C(c2ccccc2)c2nc3ccccc3[nH]2)cn1 (configuration not stated)	esBAF inh 44.9 (no result: E-sel inducer)
Cc1cc(C)cc(NCc2cc(=O)oc3cc(-c4ccccc4)c(O)cc23)c1	none (no result: esBAF inh, C2C12 statin)
COc1ccc(C)cc1NCc1cc(=O)oc2cc(-c3ccccc3)c(O)cc12	esBAF inh 62.1 (no result: E-sel inducer, PGC1a acetyl inh, PglD DTNB, Yeast UUG start)
CN1c2ccc(C#Cc3cccnc3)cc2[C@@H]2[C@@H](CCN2C(=O)CN2CCOCC2)[C@H]1CO	none
O=c1[nH]c(COc2ccc(Br)cc2Cl)nc2ccccc12	esBAF inh 44.9
CCCOc1ccc(/C=c2\sc3nc(-c4ccco4)nn3c2=O)cc1OCC	C2C12 statin 98.4 (no result: E-sel inducer)
CC(O)(c1ccccc1)c1nc(-c2cc3ccccc3o2)cs1 (configuration not stated)	esBAF inh 49.3
CC(O)(c1ccccc1)c1nc(-c2ccc(Cl)cc2)cs1 (configuration not stated)	E-sel inducer inconclusive
CN(C)c1ccc(-c2csc(C(C)(O)c3ccccc3)n2)cc1 (configuration not stated)	esBAF inh 56.1 (no result: PGC1a acetyl inh)
C[C@H](CO)N1C[C@H](C)[C@H](CN(C)Cc2cccnc2)Oc2cc(C#CCN(C)C)ccc2S1(=O)=O	none
CC1=C(C(=O)Nc2ccc(CC(=O)NCc3ccccc3C)cc2)SCCO1	esBAF inh 49.0
Cc1ccc(/C=C(\C#N)C(=O)NCc2ccco2)o1	none (no result: esBAF inh, PglD DTNB, Yeast UUG start, C2C12 statin)
Cc1c(C(=O)O)cccc1-n1c(C)cc(/C=C(/C#N)C(=O)NCc2ccccc2)c1C	E-sel inducer 83.2 (no result: esBAF inh, PglD DTNB, Yeast UUG start, C2C12 statin)
Cc1cc(/C=C(\C#N)C(=O)NCc2ccco2)c(C)n1C1CCCC1	esBAF inh 53.2 (no result: E-sel inducer)
O=C(C[C@H]1C=C[C@H](NC(=O)Cc2cccnc2)[C@@H](CO)O1)Nc1ccc(-c2ccccc2)cc1	none (no result: esBAF inh, PglD DTNB, Yeast UUG start, C2C12 statin)
CN(C)/C=C/C(=O)c1cnc(-c2ccccc2)s1	esBAF inh 56.4 (no result: E-sel inducer)
